Test results from patent US9908923.

By UniProt entry, the sequences of proteins in these tests, tags left out. Residues count along the entry.
UniProt P48061, 22-89 limits assumed: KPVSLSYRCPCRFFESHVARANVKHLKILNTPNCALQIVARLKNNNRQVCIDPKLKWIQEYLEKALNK

Experiments:
[1] = biological target: CXCL12WT (wild type CXCL12) (Homo sapiens (Human)) (UniProt P48061); experiment: dimerization without peptide, from fluorescence polarization at 298 K
[2] = biological target: CXCL12WT (wild type CXCL12) (Homo sapiens (Human)) (UniProt P48061); experiment: dimerization after binding of the sTyr21 sulfopeptide, from fluorescence polarization at 298 K
[3] = biological target: CXCL12WT (wild type CXCL12) (Homo sapiens (Human)) (UniProt P48061); experiment: CXCL12WT dimerization, intrinsic tryptophan fluorescence polarization, in the presence of 50 mM sulfotyrosine
[4] = biological target: CXCL12WT (wild type CXCL12) (Homo sapiens (Human)) (UniProt P48061); experiment: CXCL12WT dimerization, intrinsic tryptophan fluorescence polarization, in the presence of 3 mM sTyr21 sulfopeptide
[5] = biological target: CXCL12WT (wild type CXCL12) (Homo sapiens (Human)) (UniProt P48061); experiment: CXCL12WT dimerization, intrinsic tryptophan fluorescence polarization, 25 mM MES pH 6.8, 298 K; alone, no sulfotyrosine or sTyr21 sulfopeptide
[6] = biological target: CXCL12WT (wild type CXCL12) (Homo sapiens (Human)) (UniProt P48061); experiment: dimerization in 100 mM NaPO4 pH 7.4; 100 mM NaPO4 (pH 7.4)

- ΔGdimer [1]: -2.5 kcal/mol
- ΔGdimer [2]: -3.5 kcal/mol
- Kd [3]: 8.9 mM
- Kd [4]: 2.6 mM
- Kd [5]: 15.1 mM
- Kd [6]: 0.14 mM
Substance: CXCL12WT (wild type CXCL12) (from UniProt P48061 22-89) (ligand; other documents disagree on this pair)
